Assay outcomes from PubChem BioAssay.
MC4R antag cAMP: human MC4R antagonism in cAMP assay. P32245. MC4R-expressing cells, MTII-stimulated cAMP, LANCE TR-FRET. inhibition, % at 6.5 µM. hit rate 0.48% among 360,000;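 active = inhibition above its plate's cutoff, the mean of tested wells on that plate plus 3 SD, cut at about 29% in these data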;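 note: 0% = Melanotan II alone and 100% = Melanotan II plus saturating MCL0020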
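Material: human MC4R-expressing U2OS cells. Probe or stimulus: Melanotan II challenge. Dosing: 6.5 µM single dose. Times: 30-min compound, 1-h challenge, 1-h detection, room temperature. Technique: TR-FRET with Eu-cAMP and labeled anti-cAMP, 671 nm. Replication: singlicate.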
MC4R ag barr: human MC4R agonism via beta-arrestin; P32245; U2OS MC4R beta-arrestin complementation, luminescence; percent of melanotan II response, DMSO zero; activation, % at 8.9 µM; hit rate 0.98% among 360,000; AID 540308;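 active = activation above a per-plate cutoff, the mean activation of sample wells on that plate plus 3 SD, cut at about 8% in these data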
HDAC3 inh: blocks human histone deacetylase 3; O15379; AID 2718; recombinant HDAC3, fluorogenic peptide/trypsin coupled, fluorescence; hit rate 0.15% among 320,000; inhibition, % at 8.3 µM; in the data active = inhibition above about 26%, passing the limit was not always enough
Yeast UUG start: yeast start codon fidelity modulation; activity score, % at 18.7 µM; actives 0.13% (n = 350,000); S. cerevisiae UUG-firefly luciferase reporter, luminescence/redox ratio; AID 602363;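 active means replicate mean at a twofold rise or more, about +100% in these data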;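 further: firefly luciferase made from a UUG start codon reports start codon fidelity; reporter light over untreated wells divided by growth signal over untreated wells; some hits fall short of that in this replicate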
NALP1 yeast inh: blocks the NALP1 inflammasome reconstituted in yeast | S. cerevisiae NALP1/ASC/caspase-1 growth, X-gal OD620, 72 h | inhibition, % at 10 µM | hit rate 0.61% among 280,000 | AID 2071; in the data active = inhibition mostly above about 24%, no sharp cut-off; inactive = mostly below about 32%
ALR H2O2 inh: inhibitors of human ALR sulfhydryl oxidase, primary screen, biochemical, H2O2 detection, HRP-luminol luminescence, single point. 290,000 compounds, 3.8% hits. inhibition, % (concentration not given with the values). purified ALR, DTT oxidation. AID 485317, 2010;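 active means mean and each replicate at 75% or more; inconclusive means only one of the two met; inactive means neither met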;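 further: stock transfer was 7.5 nL into about 7.5 µL; 0% = neutral wells and 100% = wells with inactivated enzyme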
An asterisk follows results filed as active; / = no result given. Only some compounds are listed: those with a hit (about 4.2% of all), similar ones and a draw of the others.

Compound	MC4R antag cAMP	MC4R ag barr	HDAC3 inh	Yeast UUG start	NALP1 yeast inh	ALR H2O2 inh
C/C(Cn1nc([N+](=O)[O-])cc1C)=N\NC(=O)c1ccc(O)cc1O	6.0	-0.3	-0.6	-11.7	-0.5	5.4
COc1cc(C(=O)N/N=C(\C)Cn2nc([N+](=O)[O-])cc2C)ccc1O	-1.4	-2.4	-6.1	-16.4	16.8	83.0*
COc1ccc(C(N)CCc2ccco2)cc1 (stereo not given)	15.8	2.0	1.4	-5.3	0.4	99.1*
O=C(Nc1ccc2c(c1)[C@@H]1C[C@@H](CC(=O)N3CCc4ccccc4C3)O[C@H](CO)[C@@H]1O2)NC1CCCC1	/	/	/	-8.5	/	/
CCCCCC(O)(c1ccc(OCC)cc1)C(CN1CCOCC1)c1ccccc1 (stereo not given)	17.8	1.1	25.8*	1.0	-13.5	-1.6
c1ccc(Nc2nc(N3CCCC3)nc(N3CCCC3)n2)cc1	7.4	-0.9	4.0	-16.7	7.6	-3.0
O=C(O)c1cccc(Nc2nc(Nc3ccccc3)nc(N3CCCC3)n2)c1	16.2	1.7	3.1	/	0.0	94.5*
O=C(Nc1cc(F)ccc1F)N1CCCCN2[C@H](CO)[C@H](c3ccc(-c4cncnc4)cc3)[C@H]2C1	/	/	/	7.7	/	/
CC(C)c1ccc(Nc2nc(Cl)nc(NCCO)n2)cc1	7.1	0.6	7.1	-4.3	17.0	97.4*
COc1ccc(Nc2nc(Cl)nc(NCCO)n2)cc1	0.4	-1.9	0.2	-29.8	5.2	/
Oc1ccc(/C=N/NC(=S)Nc2cccnc2)cc1	3.4	0.3	9.4	/	/	99.3*
COc1ccc(C2NN=C(c3c[nH]c4ccccc34)C2O)cc1 (stereo not given)	18.0	1.2	2.1	-1.8	8.5	/
COc1ccc(C2C(O)C(c3c[nH]c4ccccc34)=NN2C(=O)CCl)cc1 (stereo not given)	12.3	16.5*	-6.7	-1.0	7.4	12.7
COC(=O)c1c(NC(=O)/C=C/C(=O)O)sc(C)c1-c1ccc(C)cc1	6.4	-1.5	5.3	1.7	5.9	98.0*
CCOC(=O)c1c(NC(=O)/C=C/C(=O)O)sc(C)c1-c1ccc(F)cc1	11.0	-3.8	1.4	/	-13.3	60.3
COC(=O)c1c(NC(=O)/C=C/C(=O)O)sc(C)c1-c1ccc(C)c(C)c1	6.8	-0.6	/	/	15.5	/
CCOC(=O)c1c(NC(=O)/C=C/C(=O)O)sc(C)c1-c1ccc(C)c(C)c1	-10.5	0.7	-1.3	/	6.5	97.7*
Clc1ccc(-c2nc3cnccn3c2Nc2ccc3c(c2)OCO3)cc1	-3.2	2.7	12.5	-0.3	42.0	97.6*
Cc1ccc(-c2nc3cnccn3c2Nc2ccc3c(c2)OCO3)o1	13.7	0.0	4.8	-15.5	24.0	/
CSc1ccc(-c2nc3cnccn3c2Nc2ccc3c(c2)OCO3)cc1	3.1	-1.2	1.4	-12.4	2.4	99.6*

(list continues)
Results follow in this order: MC4R antag cAMP, MC4R ag barr, HDAC3 inh, Yeast UUG start, NALP1 yeast inh, ALR H2O2 inh
- C[C@H]1CN([C@@H](C)CO)C(=O)c2cc(C#CC3CC3)cnc2O[C@@H]1CN(C)S(=O)(=O)c1cccc(F)c1
→ /, /, /, 11.7, /, /
- CCc1cc2cc(C(=O)Nc3ccccc3F)sc2s1
→ -1.6, 9.0*, 5.2, 8.0, 8.3, 4.3
- Cc1cc(C)c2c(c1)/C(=N/NS(=O)(=O)c1ccc(Br)cc1)CCC2
→ 6.7, 1.7, 0.1, -16.5, 38.5*, -8.0
- O=C(C[C@H]1C[C@@H]2c3cc(NC(=O)Nc4ccccc4)ccc3O[C@@H]2[C@H](CO)O1)NCC1CC1
→ /, /, /, -8.8, /, /
- CCn1c(=O)c2c3c(sc2n2c(=S)[nH]nc12)CCC3
→ -1.9, -0.6, -1.3, /, 1.9, 86.8*
- Cc1ccc(-n2c(=O)c3c4c(sc3n3c(=S)[nH]nc23)CCC4)cc1
→ -0.9, -2.1, 0.6, -8.7, 2.4, 7.0
- CN(Cc1n[nH]c(=S)n1C)S(=O)(=O)c1ccccc1
→ -1.4, -2.0, 11.1, 5.3, 15.6, 85.0*
- CN(Cc1nc2ccccc2n1C)S(=O)(=O)c1ccc(F)cc1
→ 1.5, -0.5, -4.0, -6.3, 23.8, -0.7
- C[C@H](CO)N1C[C@H](C)[C@@H](CN(C)Cc2ccc(C(=O)Nc3ccccc3N)cc2)Oc2c(NC(=O)Nc3ccc4c(c3)OCO4)cccc2C1=O
→ /, /, /, -4.8, /, /
- N#Cc1c(/N=C/c2ccc(-c3ccc(C(=O)O)c(Cl)c3)o2)sc2c1CCCC2
→ 10.8, -2.1, 1.0, -5.2, /, 98.8*
- N#Cc1c(/N=C/c2ccc(-c3ccccc3C(=O)O)o2)sc2c1CCCC2
→ -2.3, -1.9, 12.7, 5.1, 11.9, /
- COCc1cc(C)nc(N/N=C/c2ccc(-c3ccc(C(=O)O)c(Cl)c3)o2)c1C#N
→ /, /, 3.1, /, 9.4, 97.7*
- COc1ccc(S(=O)(=O)N(C)C[C@@H]2Oc3ccc(NS(=O)(=O)c4cccs4)cc3CC(=O)N([C@H](C)CO)C[C@@H]2C)cc1
→ /, /, /, 9.4, /, /
- O=C(C[C@@H]1CC[C@H](NC(=O)Nc2cc(F)ccc2F)[C@@H](CO)O1)NCCCN1CCOCC1
→ /, /, /, -9.5, /, /
- O=C(Oc1ccc(N(Cc2cccs2)C2=NS(=O)(=O)c3ccccc32)cc1)c1ccco1
→ 1.7, -1.7, 58.1*, -21.5, 15.7, /
- COc1ccc(NC(=O)N(C)C[C@@H]2Oc3ccc(NS(=O)(=O)c4ccc(OC)cc4)cc3CC(=O)N([C@@H](C)CO)C[C@H]2C)cc1
→ /, /, /, 0.4, /, /
- Fc1ccc2c(c1)C1OCCCC1C(c1ccccc1)N2 (stereo not given)
→ -3.2, 3.1, 0.8, -10.7, 24.6, 88.3*
- CCCC(=O)Nc1ccc2c(c1)C(=O)N(C)C[C@H](OC)[C@H](C)CN(C(=O)c1ccncc1)[C@H](C)CO2
→ /, /, /, 16.6, /, /
- Cc1csc(NC(=O)COc2ccc3c(C)cc(=O)oc3c2)n1
→ -8.7, 9.4*, 0.3, 3.5, -2.6, -1.7
- C[C@@H]1CN([C@H](C)CO)C(=O)c2cc(NC(=O)Cc3ccccc3)ccc2O[C@@H](C)CCCCO[C@H]1CN(C)C(=O)NC1CCCCC1
→ /, /, /, 2.1, /, /
- CCn1c(N)c(C(=O)NCC2CCCO2)sc1=S (stereo not given)
→ 6.9, -1.5, 3.8, -22.3, -3.8, 99.0*
- C=CCn1c(N)c(C(=O)NCC2CCCO2)c2nc3ccccc3nc21 (stereo not given)
→ -8.4, -3.5, -69.0, 8.1, 0.4, 44.3
- C=CCn1c(N)c(C(=O)NCc2ccco2)sc1=S
→ 5.8, -2.5, 4.9, -14.9, 10.0, 98.2*
- C=CCn1c(N)c(C(=O)NCC2CCCO2)sc1=S (stereo not given)
→ 8.8, -0.5, 1.9, -8.3, 20.6, 98.7*
- Cc1ccc(-n2c(N)c(C(=O)NCc3ccco3)sc2=S)cc1
→ -2.0, -3.4, 7.2, -10.9, -2.7, 3.5
- CCOC(=O)c1c(C)c(C(=O)NCC2CCCO2)c(C)n1CC (stereo not given)
→ 6.7, -0.4, 1.2, /, 21.2, -2.0
- C=CCn1c(N)c(C(=O)Nc2ccccc2OC)sc1=S
→ 2.2, -0.2, 9.7, -14.1, -2.8, 97.8*
- CO[C@H]1CN(C)C(=O)c2ccc(NC(C)=O)cc2OC[C@H](C)N(CC2CC2)C[C@H]1C
→ /, /, /, -8.2, /, /
